Measured values reported in patent US20060079453A1, “Hla binding peptides and their uses” (priority 2002, published 2006).
pIC50: −log10 of the molar value. Where two headings read alike, the source gives them in different places.

Experiments:
Test in all cases: biochemical
Assay type in all cases: binding
[1] = biological target: HLA-B*4403 (Homo sapiens, UniProt P01889, A223V/A65T/A93T/A95T/D201E/D98Y/E176V/E187L/E204Q/E69K/G107R/H137Y/K202T/L105A/L119I/N104T/N87E/Q56L/Q94N/R106L/R155S/R180L/S101N/S121R/S35A/S48T/T118I/V36M/W191S/Y140D/Y91S)
[2] = biological target: HLA-B*4402 (Homo sapiens, UniProt P01889, A223V/A65T/A93T/A95T/D201E/D98Y/E176V/E187L/E204Q/E69K/G107R/H137Y/K202T/L105A/L119I/N104T/N87E/Q56L/Q94N/R106L/R155S/R180D/S101N/S121R/S35A/S48T/T118I/V36M/W191S/Y140D/Y91S)
[3] = biological target: HLA-B*4002 (Homo sapiens, UniProt P01889, A65T/A93T/A95T/D138N/D201E/D98Y/E176V/E204Q/E69K/K202T/N87E/Q56L/Q94N/R180L/S48T/Y33H/Y91S); details: B*4002
[4] = biological target: HLA-B*4001 (Homo sapiens, UniProt P01889, A65T/A93T/A95T/D138N/D98Y/E176V/E69K/N87E/Q56L/Q94N/R180L/S121R/S35A/S48T/T167S/V36M/W171L/Y33H/Y91S)
[5] = biological target: HLA-B*4501 (Homo sapiens, UniProt P01889, A329T/A65T/A93T/A95T/C349S/D138N/D201E/D98Y/E176V/E187L/E204Q/E69K/H137Y/K202T/L119W/N87E/Q56L/Q94N/R155S/R180D/S121R/S35A/S48T/V127L/V306I/V36M/W191S/Y140L/Y33H/Y91S); details: B*4501
[6] = biological target: HLA-B*1801 (Homo sapiens, UniProt P01889, A329T/A93T/A95T/C349S/D201E/D54G/D98Y/E176V/E187T/E204Q/E69T/K202T/Q94N/R155S/R180L/S121R/V306I/Y140S/Y195H/Y33H/Y91S)

Compound | pIC50 ([1]; B*4403) | pIC50 ([2]; B*4402) | pIC50 [3] | pIC50 ([4]; B*4001) | pIC50 [5] | pIC50 ([6]; B*1801) | pIC50 ([1]; read-out: B*4403) | pIC50 ([2]; read-out: B*4402) | pIC50 ([6]; read-out: B*1801) | pIC50 ([4]; read-out: B*4001)
CC(C)C[C@H](NC(=O)[C@H](Cc1ccc(O)cc1)NC(=O)[C@H](CCC(=O)O)NC(=O)[C@H](CCC(=O)O)NC(=O)[C@H](C)N)C(=O)N[C@H](C(=O)N1CCC[C@H]1C(=O)N[C@@H](CCC(N)=O)C(=O)N[C@@H](CCC(N)=O)C(=O)NCC(=O)N[C@@H](Cc1ccccc1)C(=O)N[C@@H](Cc1ccccc1)C(=O)O)C(C)C | 7.89 | 7.80 | 7.35 | 6.64 |  |  |  |  |  | 
CC(C)C[C@H](NC(=O)[C@H](CC(C)C)NC(=O)[C@H](CC(C)C)NC(=O)[C@@H](NC(=O)[C@H](CCC(=O)O)NC(=O)[C@H](CCCCN)NC(=O)CNC(=O)[C@H](CCC(=O)O)NC(=O)[C@H](C)N)C(C)C)C(=O)O | 8.77 |  |  | 7.14 | 6.70 |  |  |  |  | 
C[C@H](NC(=O)[C@H](CCC(=O)O)NC(=O)[C@@H]1CCCN1C(=O)[C@H](CCC(=O)O)NC(=O)[C@@H](N)CS)C(=O)N[C@@H](CCC(N)=O)C(=O)N[C@@H](CC(N)=O)C(=O)N[C@H](C(=O)N[C@H](C(=O)N[C@@H](Cc1ccc(O)cc1)C(=O)O)[C@@H](C)O)[C@@H](C)O | < 5.37 |  | < 4.31 | < 4.89 |  |  |  |  |  | 
CC[C@H](C)[C@H](NC(=O)[C@H](CCCCN)NC(=O)[C@H](CCC(=O)O)NC(=O)[C@@H](N)CCC(=O)O)C(=O)N[C@@H](Cc1c[nH]c2ccccc12)C(=O)N[C@@H](CCC(=O)O)C(=O)N[C@@H](CCC(=O)O)C(=O)N[C@@H](CC(C)C)C(=O)N[C@@H](CO)C(=O)N[C@@H](CCSC)C(=O)O | 7.72 |  |  | 4.67 |  | 7.77 |  |  |  | 
CC[C@H](C)[C@H](NC(=O)[C@H](CCCCN)NC(=O)[C@@H](NC(=O)[C@H](CC(N)=O)NC(=O)[C@H](CCC(=O)O)NC(=O)CN)C(C)C)C(=O)N1CCC[C@H]1C(=O)N[C@H](C(=O)N[C@@H](C)C(=O)O)C(C)C | 8.57 | 4.69 | 8.12 | 4.84 | 8.15 |  |  |  |  | 
CC[C@H](C)[C@H](N)C(=O)N[C@@H](CCC(=O)O)C(=O)N[C@@H](CC(C)C)C(=O)N[C@@H](CCSC)C(=O)N[C@@H](CCC(=O)O)C(=O)N[C@H](C(=O)N[C@@H](CC(=O)O)C(=O)N1CCC[C@H]1C(=O)N[C@H](C(=O)NCC(=O)O)[C@@H](C)CC)C(C)C | < 4.79 |  |  |  |  | 6.71 |  |  |  | 
CC[C@H](C)[C@H](NC(=O)[C@H](CCC(=O)O)NC(=O)[C@@H](N)CCCCN)C(=O)N[C@@H](CC(C)C)C(=O)N[C@@H](CC(=O)O)C(=O)N[C@@H](CCC(=O)O)C(=O)N[C@@H](C)C(=O)N[C@@H](Cc1ccc(O)cc1)C(=O)N[C@H](C(=O)N[C@@H](CCSC)C(=O)O)C(C)C | 8.12 |  |  | 8.00 |  | 9.85 |  |  |  | 
CC(C)C[C@H](NC(=O)CNC(=O)[C@H](CC(C)C)NC(=O)[C@H](C)NC(=O)[C@H](CCC(=O)O)NC(=O)CNC(=O)[C@H](CCCNC(=N)N)NC(=O)[C@H](C)NC(=O)[C@H](CCC(=O)O)NC(=O)[C@@H](N)CC(C)C)C(=O)N[C@H](C(=O)NCC(=O)N[C@@H](C)C(=O)O)C(C)C | 8.66 | 5.59 |  | 7.70 |  | 6.46 |  |  |  | 
CC(C)C[C@H](NC(=O)[C@@H](NC(=O)[C@H](CO)NC(=O)[C@H](CCC(=O)O)NC(=O)[C@@H](N)CC(C)C)C(C)C)C(=O)N[C@@H](CCCNC(=N)N)C(=O)N[C@@H](CC(N)=O)C(=O)N[C@@H](CS)C(=O)N[C@@H](CCC(N)=O)C(=O)N[C@@H](CC(=O)O)C(=O)N[C@@H](Cc1ccccc1)C(=O)N[C@@H](Cc1ccccc1)C(=O)O | 7.62 | 6.74 |  | 7.26 | 5.70 |  |  |  |  | 
CSCC[C@H](N)C(=O)N[C@@H](CCC(=O)O)C(=O)N[C@@H](CC(C)C)C(=O)N[C@@H](C)C(=O)N[C@@H](C)C(=O)N[C@@H](CC(C)C)C(=O)N[C@@H](CS)C(=O)N[C@@H](CCCNC(=N)N)C(=O)N[C@@H](Cc1c[nH]c2ccccc12)C(=O)O | 8.00 | 7.80 |  | 5.32 |  | 8.15 |  |  |  | 
CC(C)C[C@H](NC(=O)[C@H](Cc1ccc(O)cc1)NC(=O)[C@@H](NC(=O)[C@@H](NC(=O)[C@H](CC(N)=O)NC(=O)[C@H](CCC(N)=O)NC(=O)[C@H](C)NC(=O)[C@H](CCC(=O)O)NC(=O)[C@@H]1CCCN1)[C@@H](C)O)[C@@H](C)O)C(=O)N[C@@H](Cc1c[nH]c2ccccc12)C(=O)O | 4.67 |  | < 4.90 | < 5.03 | < 4.54 |  |  |  |  | 
CC(C)C[C@H](NC(=O)[C@H](Cc1ccc(O)cc1)NC(=O)[C@@H](NC(=O)[C@@H](NC(=O)[C@H](CC(N)=O)NC(=O)[C@H](CCC(N)=O)NC(=O)[C@H](C)NC(=O)[C@H](CCC(=O)O)NC(=O)[C@@H]1CCCN1)[C@@H](C)O)[C@@H](C)O)C(=O)N[C@@H](Cc1c[nH]c2ccccc12)C(=O)N[C@@H](Cc1c[nH]c2ccccc12)C(=O)N[C@H](C(=O)O)C(C)C | 8.48 | 8.29 | 6.19 | 5.77 |  |  |  |  |  | 
CC(C)C[C@H](NC(=O)[C@H](Cc1ccc(O)cc1)NC(=O)[C@@H](NC(=O)[C@H](C)NC(=O)[C@H](CC(=O)O)NC(=O)[C@H](CCC(N)=O)NC(=O)[C@@H](NC(=O)[C@H](CCC(=O)O)NC(=O)[C@@H]1CCCN1)[C@@H](C)O)[C@@H](C)O)C(=O)O | 6.52 | < 4.46 | 4.47 | 5.91 |  | 5.02 |  |  |  | 
CC[C@H](C)[C@H](NC(=O)[C@H](CCC(=O)O)NC(=O)[C@@H](NC(=O)[C@H](CC(C)C)NC(=O)[C@H](CO)NC(=O)[C@H](CCCNC(=N)N)NC(=O)[C@H](CC(C)C)NC(=O)[C@H](CCC(N)=O)NC(=O)[C@H](CC(C)C)NC(=O)[C@H](CCC(=O)O)NC(=O)[C@@H](N)CCCNC(=N)N)[C@@H](C)O)C(=O)N[C@@H](CC(C)C)C(=O)O | 8.96 | 5.42 | 6.22 | 6.82 |  | 5.23 |  |  |  | 
CC[C@H](C)[C@H](NC(=O)[C@@H]1CCCN1C(=O)[C@@H](NC(=O)[C@H](CCCCN)NC(=O)CNC(=O)CNC(=O)[C@H](CC(=O)O)NC(=O)[C@H](C)NC(=O)[C@H](Cc1c[nH]cn1)NC(=O)[C@H](Cc1ccc(O)cc1)NC(=O)[C@H](CCC(=O)O)NC(=O)[C@@H](N)[C@@H](C)O)C(C)C)C(=O)O | 7.21 |  | 8.36 | 7.66 |  | 6.17 |  |  |  | 
CC[C@H](C)[C@H](NC(=O)[C@H](Cc1ccc(O)cc1)NC(=O)[C@H](CC(C)C)NC(=O)[C@H](Cc1c[nH]cn1)NC(=O)[C@H](CO)NC(=O)[C@@H](NC(=O)[C@@H]1CCCN1C(=O)[C@@H](NC(=O)[C@@H](NC(=O)[C@H](CCC(=O)O)NC(=O)[C@@H](N)C(C)C)C(C)C)C(C)C)[C@@H](C)CC)C(=O)N[C@@H](CC(C)C)C(=O)O | 8.40 | 6.31 |  | 8.47 |  | 6.58 |  |  |  | 
CSCC[C@H](NC(=O)[C@H](CO)NC(=O)[C@H](CC(C)C)NC(=O)[C@H](CCC(=O)O)NC(=O)[C@H](CCC(=O)O)NC(=O)[C@@H](N)Cc1c[nH]c2ccccc12)C(=O)N[C@@H](CC(C)C)C(=O)O [WEELSML] | 6.82 | < 4.55 |  |  | 4.09 |  |  |  |  | 
SENDRYRIL |  |  |  |  |  |  | 6.79 | 6.74 | 4.74 | 6.57
